Sequences of proteins named here, by UniProt entry; tags and fusion partners are left off. Residues count along the entry.
UniProt Q9Y5Z0, 63-518 limits assumed: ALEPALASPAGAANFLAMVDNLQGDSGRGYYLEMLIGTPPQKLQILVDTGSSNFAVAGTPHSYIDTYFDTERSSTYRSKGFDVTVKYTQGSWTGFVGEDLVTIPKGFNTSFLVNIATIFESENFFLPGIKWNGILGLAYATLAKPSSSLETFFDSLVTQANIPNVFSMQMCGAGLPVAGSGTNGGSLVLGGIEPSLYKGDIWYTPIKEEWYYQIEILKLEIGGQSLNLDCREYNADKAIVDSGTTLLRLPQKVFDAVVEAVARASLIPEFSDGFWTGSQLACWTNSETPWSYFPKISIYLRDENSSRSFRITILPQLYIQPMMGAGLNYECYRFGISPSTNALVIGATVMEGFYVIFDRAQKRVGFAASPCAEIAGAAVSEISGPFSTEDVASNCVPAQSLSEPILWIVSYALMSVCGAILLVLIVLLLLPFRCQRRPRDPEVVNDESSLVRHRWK
UniProt P56817, 46-501 limits assumed: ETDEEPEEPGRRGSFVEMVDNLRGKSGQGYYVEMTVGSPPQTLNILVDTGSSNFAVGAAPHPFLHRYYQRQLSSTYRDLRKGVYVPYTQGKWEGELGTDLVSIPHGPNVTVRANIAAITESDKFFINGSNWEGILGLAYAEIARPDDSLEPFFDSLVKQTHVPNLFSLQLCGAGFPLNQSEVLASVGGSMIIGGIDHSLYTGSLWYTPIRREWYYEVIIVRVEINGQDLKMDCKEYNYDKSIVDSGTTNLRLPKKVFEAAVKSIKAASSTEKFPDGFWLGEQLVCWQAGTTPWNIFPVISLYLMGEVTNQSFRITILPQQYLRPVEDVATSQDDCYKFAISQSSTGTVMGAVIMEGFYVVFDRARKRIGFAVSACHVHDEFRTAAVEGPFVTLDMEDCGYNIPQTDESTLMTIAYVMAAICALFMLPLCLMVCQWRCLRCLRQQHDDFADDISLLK

According to US20200010482A1, “INHIBITORS OF BETA SECRETASE” (Janssen Pharmaceutica NV, priority 2017, published 2020):

Tests used:
BACE2 = BACE2 (Homo sapiens, UniProt Q9Y5Z0); assay: BACE2 biochemical FRET based assay; conditions: recombinant BACE2 0.4 μg/ml, 10 μM substrate, 450 min, pH 5.0
Excerpt: (§1) This assay is a Fluorescence Resonance Energy Transfer Assay (FRET) based assay. The substrate for this assay contains the ‘Swedish’ Lys-Met/Asn-Leu mutation of the amyloid precursor protein (APP) beta-secretase cleavage site. This substrate also contains two fluorophores: (7-methoxycoumarin-4-yl) acetic acid (Mca) is a fluorescent donor with excitation wavelength at 320 nm and emission at 405 nm and 2,4-Dinitrophenyl (Dnp) is a proprietary quencher acceptor. […] Upon cleavage by the beta-secretase, the fluorophore Mca is separated from the quenching group Dnp, restoring the full fluorescence yield of the donor. The increase in fluorescence is linearly related to the rate of proteolysis.
Briefly in a 384-well format recombinant BACE2 protein in a final concentration of 0.4 μg/ml is incubated for 450 minutes at room temperature with 10 μM substrate in incubation buffer (50 mM Citrate buffer pH 5.0, 0.05% PEG, no DMSO) in the absence or presence of compound. Next the amount of proteolysis is directly measured by fluorescence measurement at T=0 and T=450 (excitation at 320 nm and emission at 405 nm). Results are expressed in RFU (Relative Fluorescence Units), as difference between T450 and TO.
(§2) A best-fit curve is fitted by a minimum sum of squares method to the plot of % Controlmin versus compound concentration. From this an IC50 value (inhibitory concentration causing 50% inhibition of activity) can be obtained. • LC=Median of the low control values=Low control: Reaction without enzyme • HC=Median of the High control values=High Control: Reaction with enzyme
(§3) % Effect=100−[(sample−LC)/(HC−LC)*100]
(§4) % Control=(sample/HC)*100
(§5) % Controlmin=(sample−LC)/(HC−LC)*100

[1] = test system: Abeta total produced and secreted by SKNBE2 cells expressing hAPP695; assay: Cellular αLisa assay in SKNBE2 cells, Abeta total; conditions: SKNBE2 cells expressing hAPP695, 18 hours incubation
Procedure: (§6) In two αLisa assays the levels of Abeta total and Abeta 1-42 produced and secreted into the medium of human neuroblastoma SKNBE2 cells are quantified. The assay is based on the human neuroblastoma SKNBE2 expressing the wild type Amyloid Precursor Protein (hAPP695). The compounds are diluted and added to these cells, incubated for 18 hours and then measurements of Abeta 1-42 and Abeta total are taken. Abeta total and Abeta 1-42 are measured by sandwich αLisa. αLisa is a sandwich assay using biotinylated antibody AbN/25 attached to streptavidin coated beads and antibody Ab4G8 or cAb42/26 conjugated acceptor beads for the detection of Abeta total and Abeta 1-42 respectively. In the presence of Abeta total or Abeta 1-42, the beads come into close proximity. The excitation of the donor beads provokes the release of singlet oxygen molecules that trigger a cascade of energy transfer in the acceptor beads, resulting in light emission. Light emission is measured after 1 hour incubation (excitation at […] and emission at 615 nm).
(§7) A best-fit curve is fitted by a minimum sum of squares method to the plot of % Controlmin versus compound concentration. From this an IC50 value (inhibitory concentration causing 50% inhibition of activity) can be obtained. • LC=Median of the low control values=Low control: cells preincubated without compound, without biotinylated Ab in the αLisa • HC=Median of the High control values=High Control: cells preincubated without compound
as §3, §4, §5

BACE1 = BACE1 (Homo sapiens, UniProt P56817); assay: BACE1 biochemical FRET based assay; conditions: recombinant BACE1 0.04 μg/ml, 20 μM substrate, 450 min, pH 5.0
Excerpt: as §1, with “this assay is an APP derived 13 amino acids peptide that contains the” for “this assay contains the”, “cleavage by BACE1, the fluorophore” for “cleavage by the beta-secretase, the fluorophore”
Briefly in a 384-well format recombinant BACE1 protein in a final concentration of 0.04 μg/ml is incubated for 450 minutes at room temperature with 20 μM substrate in incubation buffer (50 mM Citrate buffer pH 5.0, 0.05% PEG) in the presence of compound or DMSO. Next the amount of proteolysis is directly measured by fluorescence measurement (excitation at 320 nm and emission at 405 nm) at different incubation times (0, 30, 60, 90, 120 and 450 min). For every experiment a time curve (every 30 min between 0 min and 120 min) is used to determine the time where we find the lowest basal signal of the high control. The signal at this time (Tx) is used to subtract from the signal at 450 min. Results are expressed in RFU, as difference between T450 and Tx.
as §2, §3, §4, §5

[2] = test system: Abeta 1-42 produced and secreted by SKNBE2 cells expressing hAPP695; assay: Cellular αLisa assay in SKNBE2 cells, Abeta 1-42; conditions: SKNBE2 cells expressing hAPP695, 18 hours incubation
Procedure: as §6, §7, §3, §4, §5

Structure (SMILES)	BIOCHEMICAL FRET BASED ASSAY pIC50 (BACE2)	CELLULAR αLISA ASSAY IN SKNBE2 CELLS ABETA TOTAL pIC50 [1]	BIOCHEMICAL FRET BASED ASSAY pIC50 (BACE1)	CELLULAR αLISA ASSAY IN SKNBE2 CELLS ABETA 42 PIC50 [2]
COc1ncc(-c2ccncc2)c2c1CC1(c3ccc(F)cc3F)N=C(N)SCC1C2 (stereo not drawn)	7.91	–	8.08	8.74
COc1nccc2c1CC1(c3ccc(Cl)cc3F)N=C(N)SCC1C2 (single isomer, unassigned) [197]	7	7.33	7.02	7.31
COCc1cnc(OC)c2c1C[C@H]1CSC(N)=N[C@@]1(c1ccc(F)cc1F)C2	7.55	–	7.91	8.6
COC(=O)c1ccccc1-c1cnc(OC)c2c1C[C@H]1CSC(N)=N[C@@]1(c1ccc(F)cc1F)C2	5.34	–	6.19	6.32
COc1ncc(-c2cccc(C#N)c2)c2c1C[C@]1(c3ccc(F)cc3F)N=C(N)SC[C@@H]1C2	8.06	–	8.22	8.39
COc1ncc(OCc2ccccc2)c2c1C[C@]1(c3ccc(F)cc3F)N=C(N)SC[C@@H]1C2	7.91	–	8.06	7.6
COc1nccc2c1CC1(c3ccc(Cl)cc3F)N=C(N)SCC1C2 (single isomer, unassigned) [196]	<5	<5.05	<5	<5.05
COc1ncc(-c2cccc(O)c2)c2c1C[C@]1(c3ccc(F)cc3F)N=C(N)SC[C@@H]1C2	8.6	–	9.01	8.84
COc1ncc(-c2ccncc2C#N)c2c1C[C@]1(c3ccc(F)cc3F)N=C(N)SC[C@@H]1C2	6.78	–	7.06	7.76
COc1ncc(-c2cnccc2C)c2c1C[C@]1(c3ccc(F)cc3F)N=C(N)OC[C@@H]1C2 (relative stereo)	5.21	–	6.85	7.79

Second part, led by results:

BIOCHEMICAL FRET BASED ASSAY pIC50 (BACE2)	CELLULAR αLISA ASSAY IN SKNBE2 CELLS ABETA TOTAL pIC50 [1]	BIOCHEMICAL FRET BASED ASSAY pIC50 (BACE1)	Structure (SMILES)	CELLULAR αLISA ASSAY IN SKNBE2 CELLS ABETA 42 PIC50 [2]
6.67	8.7	7.88	COc1ncc(-c2cnccc2C)c2c1C[C@]1(c3ccc(F)cc3F)N=C(N)SC[C@@H]1C2	8.7
8.56	8.68	8.56	COc1ncc(OC(C)C)c2c1C[C@]1(c3ccc(F)cc3F)N=C(N)SC[C@@H]1C2	8.65
6.65	8.24	7.94	COc1ncc(-c2ccnc(C#N)c2C)c2c1C[C@]1(c3ccc(F)cc3F)N=C(N)SC[C@@H]1C2	8.36
6.34	–	7.27	COc1cnccc1-c1cnc(OC)c2c1C[C@H]1CSC(N)=N[C@@]1(c1ccc(F)cc1F)C2	7.83
6.31	–	7.76	COc1ncc(-c2c(C)nn(C)c2C)c2c1C[C@]1(c3ccc(F)cc3F)N=C(N)SC[C@@H]1C2	8.01
6.4	7.96	8.17	COc1ncc(-c2cc(C#N)ccc2C)c2c1C[C@]1(c3ccc(F)cc3F)N=C(N)SC[C@@H]1C2	8.13
7.69	–	7.95	COc1cncc(-c2cnc(OC)c3c2C[C@H]2CSC(N)=N[C@@]2(c2ccc(F)cc2F)C3)c1	8.42
7.32	–	7.81	COc1ncc(-c2ccc(=O)n(C)c2)c2c1C[C@]1(c3ccc(F)cc3F)N=C(N)SC[C@@H]1C2	8.25
6.08	8.2	7.25	COc1ncc(-c2cnc(C)cc2C)c2c1C[C@]1(c3ccc(F)cc3F)N=C(N)SC[C@@H]1C2	8.3
7.03	8.46	8.15	COc1ncc(-c2ccncc2Cl)c2c1C[C@]1(c3ccc(F)cc3F)N=C(N)SC[C@@H]1C2	8.45
7.16	–	8.5	COc1ncc(-c2ccncc2C)c2c1C[C@]1(c3ccc(F)cc3F)N=C(N)SC[C@@H]1C2	9.04
7.27	8.31	8.35	COc1ncc(-c2ccc(C#N)cc2C)c2c1C[C@]1(c3ccc(F)cc3F)N=C(N)SC[C@@H]1C2	8.26
7.32	–	7.57	COc1ncc(Cl)c2c1C[C@]1(c3ccc(F)cc3F)N=C(N)SC[C@@H]1C2	7.35
